In US20030113828A1, “Compositions and methods for modulating Syk function” (priority 2001, published 2003):

Biological target: β1A integrin cytoplasmic domain model protein (UniProt P05556)
Experiment: surface plasmon resonance (BIAcore 3000)

Work on “Syk(6-370) cleaved from GST-Syk(6-370) by thrombin (from UniProt P43405 6-370) (other; other documents disagree on this pair)” yielded a Kd of 76 nM.
